# Ab-91 heavy chain CDR variants: yeast mating affinities

Target: peptide PDVDLGDISGINAS, taken from heptad repeat 2 (HR2) of SARS-CoV-2 spike.

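AAYL51 was designed without a model: most single CDR substitutions and a random sample of double and triple ones. Affinity was read by AlphaSeq, a pooled yeast mating assay with surface-displayed partners. The frequency of each diploid, read from paired DNA barcodes, reflects how well the two displayed proteins bind. Read counts were normalised to the haploid input and turned into Kd by a linear fit to BCL2-family pairs of known affinity, for each replicate. There are three technical replicates.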

Parent: Ab-91, a human scFv built as VL, a 15-residue (Gly4Ser)3 linker, VH. Only the CDRs of the heavy chain vary.
VL: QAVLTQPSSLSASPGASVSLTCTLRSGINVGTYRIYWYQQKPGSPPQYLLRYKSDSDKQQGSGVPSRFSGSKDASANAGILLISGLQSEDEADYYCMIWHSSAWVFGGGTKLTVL
VH: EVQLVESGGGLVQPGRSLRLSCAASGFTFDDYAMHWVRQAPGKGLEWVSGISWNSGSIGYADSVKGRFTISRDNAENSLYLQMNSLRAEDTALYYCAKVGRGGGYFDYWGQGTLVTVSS

The parent's heavy chain CDRs are GFTFDDYAMH, GISWNSGSIGYADSVK, VGRGGGYFDY; each variant's own CDRs replace them letter for letter. Numbers give log10(Kd / nM), so 0 is 1 nM and 3 is 1 µM. Smaller is tighter. A mean of the replicates is given; it leaves out those without a signal. An entry "nd" has no value in the source: the pair was not observed among the diploids in that replicate. This suggests poor binding but is not conclusive. Entries are sorted by rising average, undetected variants last. Nonspecific signal, from three strains lacking the peptide, appeared in 21% of pairings of library AAYL51, centred on 4.54 (5% of these signals below 3.26); values are not corrected for it.

Result 0.33, 0.28, -0.18 (mean 0.14), variant GFTFDDYGMH | GISWNSMSIGYADSVK | VGRGGGYFDY.
Result 1.25, 1.04, 0.56 (mean 0.95), variant GGTFNDYAMH | GISWNSGSIGYADSVK | VGVGGGYFDY.
Result 1.69, 1.64, 0.80 (mean 1.38), variant GFTFDAYAMH | GISWNSGSIGYADSFK | VGRGGGYFDY.
Result 1.68, 1.51, 1.07 (mean 1.42), variant GFNFDDYPMH | GISWNSGSQGYADSVK | VGRGGGYFDY.
Result 1.69, 1.66, 1.35 (mean 1.57), variant GFTFDDYGMH | GISWNQGSIGYADIVK | VGRGGGYFDY.
Result 4.09, nd, 3.21 (mean 3.65), variant GFGFWDYACH | GISWNSGSIGYADSVK | VGRGGGYFDY.
Result nd, nd, 4.08, variant GFTFDDYAMH | GISDNSGSIGYADSVK | MGRGGGYFDR.
Result nd, 3.56, 4.78 (mean 4.17), variant GFTFDDNAMH | GHSWNSGSIGYADSRK | VGRGGGYFDY.
Result nd, 4.27, nd, variant GKNFDDYAMH | GISWNSGSIGYAFSVK | VGRGGGYFDY.
Result 4.23, nd, 4.35 (mean 4.29), variant GFTFDDYAYH | TISWNSGSIGYADSVK | VGRGGGTFDY.
Result nd, 4.69, nd, variant GFTFDDYKEH | GISMNSGSIGYADSVK | VGRGGGYFDY.
Result 4.82, 4.85, nd (mean 4.84), variant GFDFDDYAMH | GISWNSGPIGYADSVK | VGRGGGYWDY.
Result 4.78, 5.72, 4.64 (mean 5.05), variant GTTFDDWADH | GISWNSGSIGYADSVK | VGRGGGYFDY.
Result 5.11, nd, nd, variant GFDFDDYAMH | GISWNSGSIGYADSVK | VGSGGGYDDY.
Result nd, 5.17, nd, variant GFTFDDYAMH | GISWNSHSIAYADSVK | VGRGGGYFDY.
Result 5.39, nd, nd, variant GFTFDDYAHH | GISWNSGSIGYALSVK | VSRGGGYFDY.
Result 4.85, nd, 6.26 (mean 5.55), variant GFTEDDYAMH | GIFWNSGSIGYADSVK | VGRGGGYFDY.
Result nd, 5.81, nd, variant GITFDDYAMH | GISWNSGSIKYADSVK | VGWGGGYFDY.
Result 6.31, 5.95, nd (mean 6.13), variant GFTIDDYAMH | GISWNSGSIGYASSQK | VGRGGGYFDY.
Result 6.84, nd, nd, variant GFTFDDYAMH | GISWNSGSIGYACSIW | VGRGGGYFDY.
Result nd, nd, nd, variant GFTFDDEAMH | GISWNSGSIGYDDSVK | VGRGGGYFWY.
Result nd, nd, nd, variant GFTFDDYAMH | GISWNSGSIGYADSPK | VSRGGGTFDY.
Result nd, nd, nd, variant GFDFDDYAMP | GISWNSGSIGYAISVK | VGRGGGYFDY.
Result nd, nd, nd, variant GFIFDDYAMH | GISWNSGSIGYADSVK | VGRGGGYFQY.
Result nd, nd, nd, variant GFTFDDYAMH | GISWNSGSIGLADLVK | VGRLGGYFDY.
Result nd, nd, nd, variant GFTFDDYAMH | GIEDNSGSIGYLDSVK | VGRGGGYFDY.
Result nd, nd, nd, variant GFTFDDYADH | GISWNSGSICYADSVK | VGRGKGYFDY.
Result nd, nd, nd, variant GFTFDDYFMH | GNSWNSASIGYADSVK | VGRGGGYFDY.
Result nd, nd, nd, variant GFGFDDYAMH | GTSWNSGSIGYADGVK | VGRGGGYFDY.
Result nd, nd, nd, variant HFTFDDYAMH | GLSWNSGSIGYADSVK | CGRGGGYFDY.
Result nd, nd, nd, variant GFTFDDYAMH | GDSWWSGSIGYADSVK | VGRGGSYFDY.
Result nd, nd, nd, variant GFTFDDYKMH | GISWNSGSIGIAKSVK | VGRGGGYFDY.
Result nd, nd, nd, variant EFTFDDYYWH | GISWNSGSIGYADSVK | VGRGGGYFDY.
Result nd, nd, nd, variant FFTFDDYAMH | GISWNSGSIGYEDSVK | VGRGGGYFDY.
Result nd, nd, nd, variant TFTFDDYAMH | GISINSGSIGYADSVK | VGRDGGYFDY.
Result nd, nd, nd, variant GFTFDDYAMH | GCNWNDGSIGYADSVK | VGRGGGYFDY.
Result nd, nd, nd, variant NFTFDDYAMH | GISWNSGSIGYADSVK | VGRGGAYFCY.
Result nd, nd, nd, variant GFYFDDYAMH | GPSWNSGSIGYADSVK | VGVGGGYFDY.
Result nd, nd, nd, variant GFKFDDYAMH | GISWNSGMIGYADSAK | VGRGGGYFDY.
Result nd, nd, nd, variant GFTFHDYAMH | IHSWNSGSIGYADSVK | VGRGGGYFDY.
Result nd, nd, nd, variant GFTFDDYAMH | GISWNSGSIGYADSAK | PQRGGGYFDY.
Result nd, nd, nd, variant GFTFDPYAMH | GKSWNSGSIGYADSVK | CGRGGGYFDY.
Result nd, nd, nd, variant GFTFDDYAMH | GIRWNSGSIPYMDSVK | VGRGGGYFDY.
Result nd, nd, nd, variant GYTWDDYAMH | GISWNSGSIGYADSVK | VGRGGGYVDY.
Result nd, nd, nd, variant TFTFDNYAMH | GISWNSGSIGYADSDK | VGRGGGYFDY.
Result nd, nd, nd, variant GFTFMDYAMH | GISWNSGSIGYADSVK | VREGGGYFDY.
Result nd, nd, nd, variant GFTFDDEAMH | GISWNSASIGYADSVK | VGRGGGDFDY.
Result nd, nd, nd, variant GFTFDDYAMH | TISWNSGSIGYADSPK | CGRGGGYFDY.

3 of these entries, quoted again:

CDR-H1,CDR-H2,CDR-H3,"replicates, log10 nM","log10 Kd (nM), mean"
GFNFDDYPMH,GISWNSGSQGYADSVK,VGRGGGYFDY,"1.68, 1.51, 1.07",1.42
GFKFDDYAMH,GISWNSGMIGYADSAK,VGRGGGYFDY,"nd, nd, nd",nd
GFTFDDEAMH,GISWNSASIGYADSVK,VGRGGGDFDY,"nd, nd, nd",nd

Reference: Engelhart et al. 2022, doi:10.1038/s41597-022-01779-4. File: FLAb, binding data.